Test results reported in ChEMBL document CHEMBL1128305, “Metabotropic glutamate receptors: novel targets for drug development” (J Med Chem, 1995).

Chains of the proteins cited; added tags and fusions are not shown. Lines headed by an entry give the natural chain unless they say otherwise; changes in a name come on top.
UniProt P23385: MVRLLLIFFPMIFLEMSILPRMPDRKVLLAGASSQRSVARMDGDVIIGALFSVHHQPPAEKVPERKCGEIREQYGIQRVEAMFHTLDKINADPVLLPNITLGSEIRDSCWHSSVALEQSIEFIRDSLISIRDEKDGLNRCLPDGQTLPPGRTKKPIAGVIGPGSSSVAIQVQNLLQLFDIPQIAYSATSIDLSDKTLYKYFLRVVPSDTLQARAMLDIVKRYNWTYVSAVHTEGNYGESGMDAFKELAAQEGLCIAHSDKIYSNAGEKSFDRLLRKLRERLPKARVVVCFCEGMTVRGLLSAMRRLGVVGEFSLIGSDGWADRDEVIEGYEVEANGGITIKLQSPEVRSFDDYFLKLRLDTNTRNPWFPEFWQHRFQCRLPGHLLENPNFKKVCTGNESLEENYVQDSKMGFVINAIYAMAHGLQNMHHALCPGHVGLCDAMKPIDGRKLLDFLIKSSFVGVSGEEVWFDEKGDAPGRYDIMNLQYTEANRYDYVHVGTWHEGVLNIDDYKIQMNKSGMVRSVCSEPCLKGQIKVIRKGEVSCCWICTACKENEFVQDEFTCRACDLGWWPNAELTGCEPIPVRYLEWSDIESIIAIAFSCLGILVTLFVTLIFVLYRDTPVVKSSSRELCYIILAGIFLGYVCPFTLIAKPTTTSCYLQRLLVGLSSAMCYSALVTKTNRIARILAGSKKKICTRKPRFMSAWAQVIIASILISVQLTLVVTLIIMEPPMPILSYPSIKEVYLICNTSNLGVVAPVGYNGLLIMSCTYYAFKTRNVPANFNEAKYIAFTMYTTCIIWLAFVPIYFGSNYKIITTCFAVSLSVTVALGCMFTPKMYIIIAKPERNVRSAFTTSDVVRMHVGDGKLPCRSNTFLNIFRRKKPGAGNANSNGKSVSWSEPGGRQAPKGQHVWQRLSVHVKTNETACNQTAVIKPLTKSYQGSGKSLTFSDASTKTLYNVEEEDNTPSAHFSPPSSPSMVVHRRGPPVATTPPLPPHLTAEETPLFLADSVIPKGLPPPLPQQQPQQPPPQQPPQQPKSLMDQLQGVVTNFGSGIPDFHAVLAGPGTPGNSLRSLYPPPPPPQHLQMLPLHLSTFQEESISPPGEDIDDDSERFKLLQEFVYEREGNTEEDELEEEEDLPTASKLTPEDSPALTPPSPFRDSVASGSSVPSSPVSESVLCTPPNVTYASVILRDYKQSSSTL
UniProt Q14833: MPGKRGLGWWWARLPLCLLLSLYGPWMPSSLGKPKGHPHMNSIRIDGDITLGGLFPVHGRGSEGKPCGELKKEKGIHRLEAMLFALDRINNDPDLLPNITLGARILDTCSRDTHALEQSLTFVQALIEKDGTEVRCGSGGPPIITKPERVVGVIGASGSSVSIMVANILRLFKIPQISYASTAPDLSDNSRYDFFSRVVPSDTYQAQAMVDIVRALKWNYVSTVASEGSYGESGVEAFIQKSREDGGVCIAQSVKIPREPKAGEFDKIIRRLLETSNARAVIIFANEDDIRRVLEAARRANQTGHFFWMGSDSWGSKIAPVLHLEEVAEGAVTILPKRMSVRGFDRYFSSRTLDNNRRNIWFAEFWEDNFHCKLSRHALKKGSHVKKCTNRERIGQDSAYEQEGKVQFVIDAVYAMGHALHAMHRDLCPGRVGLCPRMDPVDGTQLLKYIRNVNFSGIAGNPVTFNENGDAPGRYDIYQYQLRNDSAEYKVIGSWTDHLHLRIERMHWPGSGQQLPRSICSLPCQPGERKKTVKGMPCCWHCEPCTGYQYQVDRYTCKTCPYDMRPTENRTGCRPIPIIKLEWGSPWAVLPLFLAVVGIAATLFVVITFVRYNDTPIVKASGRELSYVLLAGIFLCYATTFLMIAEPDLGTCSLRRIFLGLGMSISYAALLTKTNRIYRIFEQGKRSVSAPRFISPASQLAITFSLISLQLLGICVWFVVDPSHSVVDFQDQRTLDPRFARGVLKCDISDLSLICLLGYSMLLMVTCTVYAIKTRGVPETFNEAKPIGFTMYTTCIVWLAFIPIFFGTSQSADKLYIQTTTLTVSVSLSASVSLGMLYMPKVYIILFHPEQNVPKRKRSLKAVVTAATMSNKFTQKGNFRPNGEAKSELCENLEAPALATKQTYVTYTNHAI
UniProt P31421: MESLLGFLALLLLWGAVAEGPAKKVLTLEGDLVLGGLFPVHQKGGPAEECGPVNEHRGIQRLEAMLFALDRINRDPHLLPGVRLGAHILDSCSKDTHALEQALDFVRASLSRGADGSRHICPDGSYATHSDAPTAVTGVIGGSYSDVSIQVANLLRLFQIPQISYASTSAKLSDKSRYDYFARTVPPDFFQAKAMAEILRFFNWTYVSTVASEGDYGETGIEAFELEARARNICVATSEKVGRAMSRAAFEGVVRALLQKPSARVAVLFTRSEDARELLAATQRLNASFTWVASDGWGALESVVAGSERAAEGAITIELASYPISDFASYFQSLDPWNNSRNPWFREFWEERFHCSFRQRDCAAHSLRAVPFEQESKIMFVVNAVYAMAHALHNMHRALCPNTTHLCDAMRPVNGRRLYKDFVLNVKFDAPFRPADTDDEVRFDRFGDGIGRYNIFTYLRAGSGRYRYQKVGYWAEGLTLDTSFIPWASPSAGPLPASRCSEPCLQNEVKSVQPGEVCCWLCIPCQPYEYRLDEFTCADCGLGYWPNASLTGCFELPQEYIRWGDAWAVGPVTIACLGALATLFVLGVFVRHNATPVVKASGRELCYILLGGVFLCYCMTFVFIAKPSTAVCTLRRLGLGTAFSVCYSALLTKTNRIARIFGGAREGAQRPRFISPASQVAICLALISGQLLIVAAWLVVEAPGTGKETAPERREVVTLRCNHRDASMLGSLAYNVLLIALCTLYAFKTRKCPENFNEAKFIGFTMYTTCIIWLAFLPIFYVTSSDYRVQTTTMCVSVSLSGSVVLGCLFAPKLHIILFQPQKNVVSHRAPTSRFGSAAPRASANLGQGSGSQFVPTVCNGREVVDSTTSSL

Assays:
[1] = molecular target: T1, Metabotropic glutamate receptor 1 (Rattus norvegicus, UniProt P23385); assay: Concentration for half maximal activation of metabotropic glutamate mGluR1b in rat
[2] = molecular target: T1, Metabotropic glutamate receptor 1; assay: Concentration for half maximal activation of metabotropic glutamate mGluR1c in rat
[3] = molecular target: Metabotropic glutamate receptor 4 (Homo sapiens, UniProt Q14833); assay: Concentration for half maximal activation of metabotropic glutamate mGluR4a in human
[4] = molecular target: Metabotropic glutamate receptor 2 (Rattus norvegicus, UniProt P31421); assay: Concentration for half maximal activation of metabotropic glutamate mGluR2 in rat

Row | SMILES | EC50 [1] [µM] | EC50 [2] [µM] | EC50 [3] [µM] | EC50 [4] [µM]
1 | N[C@@]1(C(=O)O)CC[C@@H](C(=O)O)C1 | 105 | 130 | 166 | –
2 | N[C@H](C(=O)O)c1cc(=O)[nH]o1 [IBOTENIC ACID] | – | – | – | 35
